For orientation: IC50 means the concentration that gives 50% inhibition.

The values that follow come from US12172975B2, “1H-indazole carboxamides as receptor-interacting protein kinase 1 inhibitors (RIPK1)” (BRISTOL-MYERS SQUIBB COMPANY, priority 2018, dated 2024).

Where a name gives a salt, the structure may show the parent alone. Read-outs that look alike come from different tables or passages of the source.

The experiment deals with MLKL phosphorylation in HT29-L23 human colorectal adenocarcinoma cells. In words: MLKL Phosphorylation High-Content Assay. It is filed as cell-based. The settings on record: 6 h, necroptosis induced with TNFα, SMAC mimetic and Z-VAD, read-out: pMLKL (IC50). The protocol: MLKL Phosphorylation High-Content Assay
HT29-L23 human colorectal adenocarcinoma cells were maintained in RPMI 1640 medium containing 10% heat-inactivated FBS, 1% Penicillin-Streptomycin and 10 mM HEPES. Cells were seeded at 2,000 cells/well in 384 well tissue culture-treated microplates (Greiner #781090-3B) and incubated at 37° C. (5% CO2/95% O2) for 2 d. […] (5% CO2/95% O2). Necroptopsis was induced using a mixture of human TNFα (35 ng/mL) (Peprotech #300-01A), SMAC mimetic (from US 2015/0322111 A1) (700 nM) and Z-VAD ([…]) (BD pharmingen #51-6936). Following 6 h incubation at 37° C. (5% CO2/95% O2), the cells were fixed with 4% formaldehyde (ACROS 11969-0010) for 15 min at rt, then permeabilized with phosphate buffered saline (PBS) containing 0.2% Triton-X-100 for 10 min. MLKL phosphorylation was detected using anti-MLKL (phospho S358) antibody (Abeam #ab 187091) (1:1000 dilution in Blocking Buffer [PBS supplemented with 0.1% BSA]) with ON incubation at 4° C. After washing three times in PBS, goat anti-rabbit Alexa-488 (1:1000 dilution) (Life Technologies, A11008) and Hoechst 33342 (Life Technologies, H3570) (1:2000 dilution) in Blocking Buffer were added for 1 h at rt.
Following another three cycles of washes in PBS, the microplates were sealed, and cellular images were acquired in the Cellomics ArrayScan VTI high-content imager equipped with an X1 camera. Fluorescent images were taken using a 10× objective and the 386-23 BGRFRN_BGRFRN and 485-20 BGRFRN_BGRFRN filter sets, for nuclei and MLKL phosphorylation, respectively. The image sets were analyzed using the Compartmental Analysis Bioapplication software (Cellomics). The level of MLKL phosphorylation was quantified as MEAN_CircRingAvglntenRatio. The maximal inhibitory response was defined by the activity induced by Neels (CAS #: 852391-15-2, 6.25 μM). […] The data were fitted using the 4-parameter logistic equation to calculate the IC50 and Ymax values.

For the compound `CNC(=O)c1n[nH]c2cc(-c3cnc(OC)c(C(=O)NC(C)c4ccccc4C(F)(F)F)c3)ccc12` (single isomer, unassigned) [Example 129, 6-[6-methoxy-5-({1-[2-(tri-fluoromethyl)phenyl]ethyl}-carbamoyl)pyridin-3-yl]-N-methyl-1H-indazole-3-carboxamide], the IC50 (Homo sapiens) is 9 nM.
Consider `COc1ncc(-c2ccc3c(C(=O)N[C@@H](C)C4CC4)n[nH]c3c2)cc1C(=O)NCc1ccccc1OC(F)(F)F` [Ex 173], for which the IC50 was 66 nM.
As for `CNC(=O)c1n[nH]c2cc(-c3cnc(OC)c(C(=O)NC[C@H]4C[C@@H]4c4ccc(F)cc4)c3)ccc12` [Example 44, 6-[5-({[(1S,2S)-2-(4-fluoro-phenyl)cyclopropyl]methyl}-carbamoyl)-6-methoxypyridin-3-yl]-N-methyl-1H-indazole-3-carboxamide], the IC50 was 29 nM.
Still for that read-out and setting: as for `CNC(=O)c1n[nH]c2cc(-c3cnc(OC)c(C(=O)NCc4ccc(F)cc4OC4CCOCC4)c3)ccc12` [Example 50, 6-[5-({[4-fluoro-2-(oxan-4-yl-oxy)phenyl]methyl}carbam-oyl)-6-methoxypyridin-3-yl]-N-methyl-1H-indazole-3-carboxamide], the figure is 7 nM; as for `CNC(=O)c1n[nH]c2cc(-c3cnc(OC)c(C(=O)NC[C@H]4C[C@H]4c4ccccc4)c3)ccc12` [Example 51, 6-[6-methoxy-5-({[(1S,2R)-2-phenylcyclopropyl]methyl}-carbamoyl)pyridin-3-yl]-N-methyl-1H-indazole-3-carbox-amide], 0.9 nM; as for `CNC(=O)c1n[nH]c2cc(-c3cnc(OC)c(C(=O)NC[C@@H]4C[C@@H]4c4ccccc4)c3)ccc12` [Example 52, 6-[6-methoxy-5-({[(1R,2S)-2-phenylcyclopropyl]methyl}-carbamoyl)pyridin-3-yl]-N-methyl-1H-indazole-3-carbox-amide], 10 nM.
For `CNC(=O)c1n[nH]c2cc(-c3cnc(OC)c(C(=O)NCc4ccccc4N4CCOCC4)c3)ccc12` [Example 53], the IC50 was 10 nM.
On to `CNC(=O)c1n[nH]c2cc(-c3cnc(OC)c(C(=O)NCc4ccccc4OCC(C)C)c3)ccc12` [Example 59, 6-[6-methoxy-5-({[2-(2-meth-ylpropoxy)phenyl]methyl}-carbamoyl)pyridin-3-yl]-N-methyl-1H-indazole-3-carbox-amide], for which the IC50 is 1.1 nM.
On the same count and under the same terms, under `CNC(=O)c1n[nH]c2cc(-c3cnc(OC)c(C(=O)NCc4ccccc4S(C)(=O)=O)c3)ccc12` [Example 66, 6-(5-{[(2-methanesulfonyl-phenyl)methyl]carbamoyl}-6-methoxypyridin-3-yl)-N-methyl-1H-indazole-3-carbox-amide] stands 350 nM; under `CCCS(=O)(=O)c1ccccc1CNC(=O)c1cc(-c2ccc3c(C(=O)NC)n[nH]c3c2)cnc1OC` [Example 69, 6-[6-methoxy-5-({[2-(propane-1-sulfonyl)phenyl]methyl}-carbamoyl)pyridin-3-yl]-N-methyl-1H-indazole-3-carbox-amide], 26 nM.
As for `CNC(=O)c1n[nH]c2cc(-c3cnc(OC)c(C(=O)NCc4ccccc4OC(F)F)c3)ccc12` [Example 78, 6-[5-({[2-(difluoromethoxy)-phenyl]methyl}carbamoyl)-6-methoxypyridin-3-yl]-N-methyl-1H-indazole-3-carbox-amide], the IC50 turned out to be 11 nM.
As for `CNC(=O)c1n[nH]c2cc(-c3cnc(OC)c(C(=O)NCc4ccccc4S(=O)(=O)C(C)C)c3)ccc12` [Example 80, 6-[6-methoxy-5-({[2-(propane-2-sulfonyl)phenyl]methyl}-carbamoyl)pyridin-3-yl]-N-methyl-1H-indazole-3-carbox-amide], the IC50 worked out at 20 nM.
`CNC(=O)c1n[nH]c2cc(-c3cnc(OC)c(C(=O)NCC4CCCCC4(C)C)c3)ccc12` (stereo not drawn) [Example 81, 6-(5-{[(2,2-dimethylcyclo-hexyl)methyl]carbamoyl}-6-methoxypyridin-3-yl)-N-methyl-1H-indazole-3-carbox-amide]: the IC50 worked out at 22 nM.
On the same count and under the same terms, as for `CNC(=O)c1n[nH]c2cc(-c3cnc(OC)c(C(=O)NCc4ccccc4S(=O)(=O)NC4CC4)c3)ccc12` [Example 85, 6-[5-({[2-(cyclopropylsulfam-oyl)phenyl]methyl}carbam-oyl)-6-methoxypyridin-3-yl]-N-methyl-1H-indazole-3-carboxamide], the figure is 72 nM; as for `CNC(=O)c1n[nH]c2cc(-c3cnc(OC)c(C(=O)NCc4cccc(OC(F)(F)F)c4)c3)ccc12` [Example 92], 12 nM.
Consider `CNC(=O)c1n[nH]c2cc(-c3cnc(OC)c(C(=O)NC(C)c4cccc(OC(F)(F)F)c4)c3)ccc12` (stereo not drawn) [Example 97, 6-[6-methoxy-5-({1-[3-(tri-fluoromethoxy)phenyl]ethyl}-carbamoyl)pyridin-3-yl]-N-methyl-1H-indazole-3-carbox-amide], for which the IC50 came to 12 nM.
`CNC(=O)c1n[nH]c2cc(-c3cnc(OC)c(C(=O)NCc4cccc(C(F)(F)F)c4)c3)ccc12` [Example 102, 6-[6-methoxy-5-({[3-(trifluoro-methyl)phenyl]methyl}carbam-moyl)pyridin-3-yl]-N-methyl-1H-indazole-3-carboxamide]: the IC50 came to 73 nM.
For the compound `CNC(=O)c1n[nH]c2cc(-c3cnc(OC)c(C(=O)NCC(F)(F)COC(C)C)c3)ccc12` [Example 103, 6-(5-{[2,2-difluoro-3-(propan-2-yloxy)propyl]carbamoyl}-6-methoxypyridin-3-yl)-N-methyl-1H-indazole-3-carbox-amide], the IC50 came to 40 nM.
With `CNC(=O)c1n[nH]c2cc(-c3cnc(OC)c(C(=O)NC(C)c4ccc(F)c(C(F)(F)F)c4)c3)ccc12` (stereo not drawn) [Example 105, 6-[5-({1-[4-fluoro-3-(trifluoro-methyl)phenyl]ethyl}carbam-oyl)-6-methoxypyridin-3-yl]-N-methyl-1H-indazole-3-carboxamide], the IC50 amounted to 180 nM.
Still for that read-out and setting: under `CNC(=O)c1n[nH]c2cc(-c3cnc(OC)c(C(=O)NCc4cccc(OCC5CC5)c4)c3)ccc12` [Example 106, 6-[5-({[3-(cyclopropylmeth-oxy)phenyl]methyl}carbamoyl)-6-methoxypyridin-3-yl]-N-methyl-1H-indazole-3-carbox-amide] stands 29 nM; under `CNC(=O)c1n[nH]c2cc(-c3cnc(OC)c(C(=O)NCc4cccc(OC5CCCC5)c4)c3)ccc12` [Example 107, 6-[5-({[3-(cyclopentyloxy)-phenyl]methyl}carbamoyl)-6-methoxypyridin-3-yl]-N-methyl-1H-indazole-3-carbox-amide], 72 nM; under `CNC(=O)c1n[nH]c2cc(-c3cnc(OC)c(C(=O)NC(C)c4ccccc4C(F)(F)F)c3)ccc12` (stereo not drawn) [Example 109, 6-[6-methoxy-5-({1-[2-(tri-fluoromethyl)phenyl]ethyl}-carbamoyl)pyridin-3-yl]-N-methyl-1H-indazole-3-carbox-amide], 15 nM.
In the case of `CNC(=O)c1n[nH]c2cc(-c3cnc(OC)c(C(=O)NCc4ccccc4OCC4CCCC4)c3)ccc12` [Example 110, 6-[5-({[2-(cyclopentylmeth-oxy)phenyl]methyl}carbam-oyl)-6-methoxypyridin-3-yl]-N-methyl-1H-indazole-3-carboxamide], the IC50 turned out to be 7.3 nM.
The same measure, in the same setting: as for `CNC(=O)c1n[nH]c2cc(-c3cnc(OC)c(C(=O)NCc4cccc(OC(C)C)c4)c3)ccc12` [Example 111, 6-[6-methoxy-5-({[3-(propan-2-yloxy)phenyl]methyl}-carbamoyl)pyridin-3-yl]-N-methyl-1H-indazole-3-carbox-amide, TFA], the figure is 20 nM; as for `CNC(=O)c1n[nH]c2cc(-c3cnc(OC)c(C(=O)NCc4cccc(C(F)(F)F)c4F)c3)ccc12` [Example 114, 6-[5-({[2-fluoro-3-(trifluoro-methyl)phenyl]methyl}carbam-oyl)-6-methoxypyridin-3-yl]-N-methyl-1H-indazole-3-carboxamide], 200 nM; as for `CNC(=O)c1n[nH]c2cc(-c3cnc(OC)c(C(=O)NCC4(C(=O)OC5CCCCC5)CC4)c3)ccc12` [Example 133, cyclohexyl 1-[({2-methoxy-5-[3-(methylcarbamoyl)-1H-indazol-6-yl]pyridin-3-yl}-formamido)methyl]cyclopro-pane-1-carboxylate, TFA], 57 nM.
`[2H]C([2H])([2H])NC(=O)c1n[nH]c2cc(-c3cnc(OC)c(C(=O)NC(C)c4cccc(OC(F)(F)F)c4)c3)ccc12` (stereo not drawn) [Example 151, 6-[6-methoxy-5-({1-[3-(tri-fluoromethoxy)phenyl]ethyl}-carbamoyl)pyridin-3-yl]-N-(deutero)methyl-1H-indazole-3-carboxamide]: the IC50 (Homo sapiens) stood at 24 nM.
